{"source": "patent US20080124780A1", "about": "“Hybrid immobilized catalytic system with controlled permeability” (NORTHEASTERN UNIVERSITY, priority 2002, published 2008)", "system": "β-galactosidase", "settings": "FIGS. 9-12 (FIG. 12: after 24 hours)", "note": "Read-outs that look alike come from different tables or passages of the source.", "data": [{"substance": "β-galactosidase [free enzyme]", "values": [{"measurement": "enzyme stability (activity remaining)", "setting": "4° C.", "result": 93, "unit": "%"}, {"measurement": "enzyme stability (activity remaining)", "setting": "37° C.", "result": 28, "unit": "%"}]}]}
